Measurements: patent US20240238300A1, “TREATMENT METHODS FOR SUBJECTS WITH CANCER HAVING AN ABERRATION IN EGFR AND/OR HER2” (TAIHO PHARMACEUTICAL CO., LTD., priority 2021, published 2024)

Tested on: NCI-N87 xenografts relapsed from T-DM1
Conditions: Step II Day 22; 10 mg/kg/day iv Day 1
Procedure: Male nude mice (BALB/cAJ1-mu/mu) were implanted with NCI-N87 human gastric carcinoma (HER2 overexpressing); 1.0×10^7 cells in 100 μL of PBS were implanted subcutaneously per mouse.
The tumor volumes (TV, mm^3) and body weights of the mice were recorded.

trastuzumab emtansine [T-DM1]
Number of Death: 0
